Reference: publication PMC8224933, “Plasticity of seven-transmembrane-helix receptor heteromers in human vascular smooth muscle cells” (PLoS ONE, 2021)

Target: T1, α1A-adrenoceptor (human (endogenous in hVSMCs), UniProt P35348 1-466)
T1 construct: α1A-adrenoceptor, endogenous in human vascular smooth muscle cells; also called α1A-AR; source: endogenous, hVSMCs (primary aortic smooth muscle cells, ATCC PCS-100-012), fixed cells
T1 sequence (looked up): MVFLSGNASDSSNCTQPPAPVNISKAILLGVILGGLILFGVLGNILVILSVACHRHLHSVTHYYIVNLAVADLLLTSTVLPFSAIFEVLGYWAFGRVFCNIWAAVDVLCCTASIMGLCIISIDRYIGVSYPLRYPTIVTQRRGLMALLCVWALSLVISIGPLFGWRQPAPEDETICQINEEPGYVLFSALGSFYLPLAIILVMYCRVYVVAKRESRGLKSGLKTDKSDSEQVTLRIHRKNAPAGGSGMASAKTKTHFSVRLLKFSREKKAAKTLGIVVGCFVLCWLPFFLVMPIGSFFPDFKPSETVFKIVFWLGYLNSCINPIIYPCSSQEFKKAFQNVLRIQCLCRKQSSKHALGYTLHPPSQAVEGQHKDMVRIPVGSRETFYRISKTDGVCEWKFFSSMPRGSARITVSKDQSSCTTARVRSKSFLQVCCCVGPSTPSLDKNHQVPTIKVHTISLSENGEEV
Experiment: proximity ligation; Duolink II PLA on hVSMCs fixed with 4% paraformaldehyde; two primary antibodies from differing species (1:500, 37°C, 105 min); control: omission of one primary antibody; PLA signals per cell counted; cells untreated or incubated 72 h with non-targeting, CXCR4, ACKR3 or AVPR1A siRNA
Details: partners not purified

PLA signals after AVPR1A siRNA, % of NT siRNA: 91%
B1: atypical chemokine receptor 3 (receptor, human (endogenous in hVSMCs), UniProt P25106 1-362, looked up)
chain: MDLHLFDYSEPGNFSDISWPCNSSDCIVVDTVMCPNMPNKSVLLYTLSFIYIFIFVIGMIANSVVVWVNIQAKTTGYDTHCYILNLAIADLWVVLTIPVWVVSLVQHNQWPMGELTCKVTHLIFSINLFGSIFFLTCMSVDRYLSITYFTNTPSSRKKMVRRVVCILVWLLAFCVSLPDTYYLKTVTSASNNETYCRSFYPEHSIKEWLIGMELVSVVLGFAVPFSIIAVFYFLLARAISASSDQEKHSSRKIIFSYVVVFLVCWLPYHVAVLLDIFSILHYIPFTCRLEHALFTALHVTQCLSLVHCCVNPVLYSFINRNYRYELMKAFIFKYSAKTGLTKLIDASRVSETEYSALEQSTK
notes: atypical chemokine receptor 3 (ACKR3), endogenous in human vascular smooth muscle cells; also called ACKR3; source: endogenous, hVSMCs (primary aortic smooth muscle cells, ATCC PCS-100-012), fixed cells
